The source of these data is ChEMBL document CHEMBL5107985, “Current progress and novel strategies that target CDK12 for drug discovery” (Eur J Med Chem, 2022).

This assay can be described thus: Inhibition of recombinant Cdc2/CycB (unknown origin). Set-up: species or system Homo sapiens.

In the case of `CC(C)[C@H](CO)Nc1nc(Nc2cccc(Cl)c2)c2ncn(C(C)C)c2n1` [PURVALANOLA], the IC50 is 4 nM.
